From patent publication US20240174690A1, “ANNULATED 2-AMINO-3-CYANO THIOPHENES AND DERIVATIVES FOR THE TREATMENT OF CANCER” (BOEHRINGER INGELHEIM INTERNATIONAL GMBH, priority 2021, published 2024)
pIC50: −log10 of the molar value.

Protein sequences, listed by entry. Tags and fused reporters are not part of them.
UniProt P08684, whole entry: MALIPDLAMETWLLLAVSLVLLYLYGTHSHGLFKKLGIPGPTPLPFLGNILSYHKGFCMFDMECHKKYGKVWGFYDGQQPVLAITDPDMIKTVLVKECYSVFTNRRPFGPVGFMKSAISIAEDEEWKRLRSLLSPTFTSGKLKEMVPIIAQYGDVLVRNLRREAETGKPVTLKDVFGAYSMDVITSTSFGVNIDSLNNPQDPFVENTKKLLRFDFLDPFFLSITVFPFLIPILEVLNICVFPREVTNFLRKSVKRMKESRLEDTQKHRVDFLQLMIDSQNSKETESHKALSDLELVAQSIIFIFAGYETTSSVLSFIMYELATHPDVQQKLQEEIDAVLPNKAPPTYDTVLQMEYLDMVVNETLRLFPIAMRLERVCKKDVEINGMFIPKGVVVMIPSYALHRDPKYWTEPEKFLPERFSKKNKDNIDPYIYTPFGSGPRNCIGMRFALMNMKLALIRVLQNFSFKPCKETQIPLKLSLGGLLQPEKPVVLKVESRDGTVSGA

Assays:
[1] = test system: SAS cells; experiment: SAS CTG proliferation assay (120 h) (HNSCC, wt amplified); conditions: read-out: SAS IC50
Description: SAS CTG Proliferation Assay (120 h) (HNSCC, Wt Amplified)
(§1) SAS cells (JCRB0260) are dispensed into 384-well plates, flat and clear bottom (Greiner, PNr. 781091) at a density of 300 cells per well in 60 μL DMEM:F12 (Gibco 31330-038)+10% Fetal Calf Serum (HyClone, PNr.: SH30084.03) and incubated at 37° C. in a CO2 incubator overnight. The next day, compounds (10 mM stock in DMSO) are added with the ECHO acoustic liquid handler system (Beckman Coulter), including DMSO controls. Plates are incubated for 120 h, and cell viability is measured using CellTiter-Glo luminescent cell viability reagent (Promega product code G7570). Viability (stated as percent of control) is defined as relative luminescence units RLU of each well divided by the RLU of cells in DMSO controls. IC50 values are determined from viability measurements by non-linear regression using a four-parameter model.

[2] = test system: SK-CO-1 cells; experiment: SK-CO-1 CTG proliferation assay (120 h) (CRC, G12V); conditions: read-out: SK-CO-1 IC50; SK-CO-1 cells (CRC, G12V), CTG 120 h
Description: SK-CO-1 CTG Proliferation Assay (120 h) (CRC, G12V)
as §1, with “SK-CO-1 cells (ATCC” for “SAS cells (JCRB0260)”, “SK-CO-1 cells (ATCC HTB-39) are dispensed” for “SAS cells (JCRB0260) are dispensed”, “density of 500 cells per” for “density of 300 cells per”, “60 μL EMEM (Sigma M5650)+10% Fetal Calf” for “60 μL DMEM:F12 (Gibco 31330-038)+10% Fetal Calf”

[3] = biological target: CYP3A4 (Homo sapiens (Human), UniProt P08684); experiment: Mechanism based inhibition of CYP3A4 assay (MBI 3A4); conditions: hydroxy-midazolam formation after 30 min vs 0 min preincubation, 25 uM, human liver microsomes
[4] = Solubility measurement (DMSO solution method), McIlvaine buffer pH 4.5 or 6.8; conditions: DMSO stock diluted to 250 μM, 24 h shaking at ambient temperature
Description: A 10 mM DMSO stock solution of a test compound is used to determine its aqueous solubility. The DMSO solution is diluted with an aqueous medium (Mcllvaine buffer with pH=4.5 or 6.8) to a final concentration of 250 μM. After 24 h of shaking at ambient temperature a potentially formed precipitate is removed by filtration. The concentration of the test compound in the filtrate is determined by LC-UV methods by calibrating the signal to the signal of a reference solution with complete dissolution of the test compound in acetonitrile/water (1:1) with known concentration.

For Cc1ccncc1-c1cn(-c2cc(O[C@@H](C)[C@@H]3CCCN3C)nc(-c3noc4c3CCC[C@@]43CCCc4sc(N)c(C#N)c43)n2)nn1, the pIC50 [1] was 8.00, the pIC50 [2] was 7.21 and the “MBI 3A4” value [3] was 54%. For the same compound, the “solubility pH 4.5” value ([4]; McIlvaine buffer pH 4.5) was less than 1 μg/ml and the “solubility pH 6.8” value ([4]; McIlvaine buffer pH 6.8) was less than 1 μg/ml.
